Experimental data published in US10017767B2, “Targets in multiple myeloma and other disorders” (FONDAZIONE CENTRO SAN RAFFAELE, priority 2012, dated 2018).
pIC50: −log10 of the molar value.

Protein sequences, listed by entry. Tags and fused reporters are not part of them.
UniProt Q13043, whole entry: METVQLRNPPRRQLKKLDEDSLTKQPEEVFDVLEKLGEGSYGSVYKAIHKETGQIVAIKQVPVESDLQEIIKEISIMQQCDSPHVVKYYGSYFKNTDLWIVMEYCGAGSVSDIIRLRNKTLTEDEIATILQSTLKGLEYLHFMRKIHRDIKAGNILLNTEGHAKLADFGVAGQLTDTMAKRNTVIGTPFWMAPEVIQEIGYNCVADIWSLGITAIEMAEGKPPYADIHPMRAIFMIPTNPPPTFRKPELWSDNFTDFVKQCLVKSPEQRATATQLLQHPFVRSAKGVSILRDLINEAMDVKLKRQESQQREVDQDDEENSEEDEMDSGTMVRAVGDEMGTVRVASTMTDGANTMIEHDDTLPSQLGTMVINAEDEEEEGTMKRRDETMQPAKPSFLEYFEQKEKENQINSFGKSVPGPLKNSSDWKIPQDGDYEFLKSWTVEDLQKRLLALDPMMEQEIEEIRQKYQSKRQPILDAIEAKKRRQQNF

Experiments:
STK4 = STK4 (Homo sapiens, UniProt Q13043); test: STK4 biochemical kinase inhibition; details: read-out: biochemical IC50 for STK4
YAP1 = YAP1 levels in MM cells after treatment
MM cell lines = test: Cell growth in a large panel of MM cell lines; format: cell-based
[1] = system: KMS-20 cell line, with YAP1 deletion; test: Cell growth in YAP1-deleted KMS-20; format: cell-based; details: KMS-20, YAP1 deleted

SMILES: CN(C1CC1)S(=O)(=O)c1ccc(-c2cnc(N)c(-c3ccc4c(c3)CCNC4=O)c2)cc1
- pIC50 (STK4): 8.10
- YAP1 levels after treatment (YAP1): YAP1 expression was induced
- effect on cell growth / proliferation in MM cell lines (MM cell lines): reduced cell growth and induced apoptosis in MM cell lines
- activity against KMS-20 [1]: not sensitive
